Experiments:
[1] = system: FLT3^ITD and IDH2 double mutant zebrafish; assay: 14-day oral gavage treatment of adult double transgenic leukemic fish, kidney marrow analysis; type: in vivo; settings: daily oral gavage 14 days, quizartinib 10 mg/kg, enasidenib 100 mg/kg
Experimental: (§1) Zebrafish WKM were harvested from two to twelve months old transgenic or wildtype TU fish. The collected KM was dissociated in 0.9×PBS with 5% fetal bovine serum (FBS) by pipetting and filtered through a 40 μm nylon cell strainer (Corning, NY, USA). The cells were then centrifuged at 500 g for 5 minutes, resuspended, filtered, and washed with 0.9×PBS with 5% (FBS) at least twice. Flow cytometry of the KM was performed using a MoFlo XDP flow cytometer (Beckman coulter). The data was analyzed using FlowJo™ v10.6.1 software. Cytospin preparations were made with 2×10^5 to 3×10^5 cells cytocentrifuged at 400 rpm for 5 minutes onto microscope glass slides (Thermo scientific). The glass slides were dried at room temperature for more than 12 hours, stained with Wright-Giemsa stain, and imaged with Nikon DS-Ri2 digital camera fitted to a Nikon Eclipse Ni-U microscope.
(§2) Drugs at three concentrations (0.01 μM, 0.1 μM and 1 μM) were added to the embryos in E3 medium with (1-phenyl-2-thiourea) PTU at 6 hpf, and the medium was changed every 24 hours. At 4 dpf, embryos were collected and fixed in 4% PFA for SSB staining. […] Adult zebrafish were anesthetized using 0.015% Tricaine. […] Treated zebrafish were then placed into an individual recovery tank with fresh sterile fish water immediately after the gavage procedure. The drug regimen was repeated daily for 14 days.

[2] = system: Tg(Runx1:FLT3^ITDIDH2^R172K) and Tg(Runx1:FLT3^ITDIDH2^R140Q) embryos; assay: Drug treatment of double transgenic embryos, SBB staining as surrogate for embryonic myelopoiesis; type: in vivo, zebrafish; settings: drugs at 0.01 μM, 0.1 μM and 1 μM from 6 hpf, stained at 4 dpf
Experimental: as §2

[3] = system: Tg(Runx1:FLT3^ITDIDH2^R172K) zebrafish; assay: 14-day oral gavage treatment of adult Tg(Runx1:FLT3^ITDIDH2^R172K) fish; type: in vivo; settings: adult Tg(Runx1:FLT3^ITDIDH2^R172K) double mutants; treatment with Quizartinib and/or Enasidenib, 14 days
Experimental: as §1, §2

[4] = system: Tg(Runx1:FLT3^ITDIDH2^R140Q) zebrafish; assay: 14-day oral gavage treatment of adult Tg(Runx1:FLT3^ITDIDH2^R140Q) fish; type: in vivo; settings: adult Tg(Runx1:FLT3^ITD IDH2^R140Q) double mutant; treatment with Quizartinib and/or Enasidenib, 14 days
Experimental: as §1, §2

SMILES: CC(C)(C)c1cc(NC(=O)Nc2ccc(-c3cn4c(n3)sc3cc(OCCN5CCOCC5)ccc34)cc2)no1 [quizartinib, Quizartinib]
- blast counts in KM ([1]; alone or combined): reduced blast counts in KM
- erythroid cells in KM / erythropoiesis ([1]; alone or combined): significant increase in neutrophils and erythroid
- neutrophils in KM ([1]; alone or combined): significant increase in neutrophils
- cellularity in KM ([1]; monotherapy): significantly reduced cellularity
- embryonic myelopoiesis (cytochemical staining with SBB) [2]: ameliorated the increase in myelopoiesis
- spleen size [3]: decreased spleen sizes
- spleen size [4]: no changes were observed in spleen size
